Reference: patent US20130078317A1, “ZINC-CONTAINING COMPOSITIONS FOR THE TREATMENT OF DISEASES, ILLNESSES AND SYNDROMES ASSOCIATED WITH EXPOSURE TO PORE FORMING TOXINS” (priority 2009, published 2013)

System: Carybdea alata venom in isolated red blood cells (2% RBC)
Assay: Hemolysis induced by Carybdea alata venom in 2% RBC
Type: cell-based, human

Question: With zinc gluconate as the substance, how does the half-time of hemolysis (2% RBC, increasing amounts of zinc gluconate, 0.62 mM to 5 mM, FIG. 5B) read?
Answer: delays

Question: And the T½ of lysis (with zinc gluconate, slowed from 10 minutes, venom dose 6.4 U/ml)?
Answer: 40 min
